# Test results: patent US9956214B2, “5-aminopyrazole-4-carboxamide inhibitors of CDPK1 from T. gondii and C. parvum” (UNIVERSITY OF WASHINGTON THROUGH ITS CENTER FOR …, priority 2013, dated 2018)
# Chains of the proteins cited; added tags and fusions are not shown. Residues count along the entry.
# UniProt P28482, whole entry, looked up, species assumed: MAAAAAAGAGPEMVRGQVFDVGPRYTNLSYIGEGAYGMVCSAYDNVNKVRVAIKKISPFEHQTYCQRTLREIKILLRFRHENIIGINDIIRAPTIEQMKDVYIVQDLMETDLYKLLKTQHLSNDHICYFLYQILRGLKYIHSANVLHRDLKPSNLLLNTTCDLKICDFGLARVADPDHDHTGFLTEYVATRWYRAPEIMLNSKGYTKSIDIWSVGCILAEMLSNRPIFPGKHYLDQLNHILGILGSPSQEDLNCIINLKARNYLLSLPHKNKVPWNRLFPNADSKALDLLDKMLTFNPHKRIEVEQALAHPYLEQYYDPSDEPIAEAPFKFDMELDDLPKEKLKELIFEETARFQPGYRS
# UniProt Q9UM73, 19-1620, species assumed: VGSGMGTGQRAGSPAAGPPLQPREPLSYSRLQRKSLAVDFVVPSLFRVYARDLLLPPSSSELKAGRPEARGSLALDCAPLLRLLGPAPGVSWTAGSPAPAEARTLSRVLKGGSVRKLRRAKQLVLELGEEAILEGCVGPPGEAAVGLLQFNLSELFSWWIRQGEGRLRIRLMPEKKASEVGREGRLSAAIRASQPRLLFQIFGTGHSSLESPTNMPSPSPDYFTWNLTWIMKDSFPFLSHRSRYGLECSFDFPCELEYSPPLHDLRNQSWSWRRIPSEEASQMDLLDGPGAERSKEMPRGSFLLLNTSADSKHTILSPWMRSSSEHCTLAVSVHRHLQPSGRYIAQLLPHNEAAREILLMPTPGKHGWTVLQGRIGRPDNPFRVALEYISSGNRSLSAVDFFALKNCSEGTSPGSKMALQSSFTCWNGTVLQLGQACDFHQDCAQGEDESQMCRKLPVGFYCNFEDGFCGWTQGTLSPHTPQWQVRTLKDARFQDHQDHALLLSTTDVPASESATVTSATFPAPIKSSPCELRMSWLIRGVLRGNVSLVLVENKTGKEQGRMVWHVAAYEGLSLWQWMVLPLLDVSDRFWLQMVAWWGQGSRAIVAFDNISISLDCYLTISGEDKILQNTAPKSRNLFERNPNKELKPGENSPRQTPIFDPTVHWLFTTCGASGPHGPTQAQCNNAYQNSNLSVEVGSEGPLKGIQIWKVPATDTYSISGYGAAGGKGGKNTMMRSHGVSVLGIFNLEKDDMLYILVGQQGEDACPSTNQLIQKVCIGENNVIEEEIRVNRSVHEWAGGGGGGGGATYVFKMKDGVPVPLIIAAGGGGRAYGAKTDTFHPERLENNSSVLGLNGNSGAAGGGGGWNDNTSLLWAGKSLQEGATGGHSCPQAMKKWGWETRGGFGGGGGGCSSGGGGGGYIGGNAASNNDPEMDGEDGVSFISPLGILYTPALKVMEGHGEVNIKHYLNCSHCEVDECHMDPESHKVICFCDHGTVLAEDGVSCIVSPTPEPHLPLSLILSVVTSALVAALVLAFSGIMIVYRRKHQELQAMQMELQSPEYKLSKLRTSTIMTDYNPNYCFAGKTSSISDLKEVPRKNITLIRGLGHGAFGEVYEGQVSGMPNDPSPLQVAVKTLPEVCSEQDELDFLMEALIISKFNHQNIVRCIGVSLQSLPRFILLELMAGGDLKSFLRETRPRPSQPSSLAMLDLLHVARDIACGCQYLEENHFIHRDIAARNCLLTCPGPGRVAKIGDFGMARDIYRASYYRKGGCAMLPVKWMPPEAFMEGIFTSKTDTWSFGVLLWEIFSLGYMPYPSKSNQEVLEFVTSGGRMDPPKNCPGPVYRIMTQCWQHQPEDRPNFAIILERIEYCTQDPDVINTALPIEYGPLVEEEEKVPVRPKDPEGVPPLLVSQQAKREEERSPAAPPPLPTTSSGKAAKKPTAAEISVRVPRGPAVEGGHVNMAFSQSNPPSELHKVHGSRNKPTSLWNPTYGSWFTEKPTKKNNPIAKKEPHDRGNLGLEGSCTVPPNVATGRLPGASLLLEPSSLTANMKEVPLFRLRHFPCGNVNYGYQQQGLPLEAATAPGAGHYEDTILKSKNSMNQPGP
# How the values were obtained:
# Erk2 = Erk2 (Homo sapiens (Human), UniProt P28482); experiment: Kinase panel selectivity: Erk2
# ALK = ALK (Homo sapiens (Human), UniProt Q9UM73); experiment: Kinase panel selectivity: ALK
smiles,measurement,setting,value
"CCOc1ccc2cc(-c3nn(C(C)(C)C)c(N)c3C(N)=O)cnc2c1 [Compound 39, 5-amino-1-(tert-butyl)-3-(7-ethoxyquinolin-3-yl)-1H-pyrazole-4-carboxamide]",Erk2 pKi,Erk2,5.18
same,ALK pKi,ALK,5.24
